Reference: US10253107B2, “Use of endocytosis inhibitors and antibodies for cancer therapy” (THE UNIVERSITY OF QUEENSLAND, priority 2012, dated 2019)

Columns and labels:
[1] = tested on: A431 cells; assay: Flow cytometry-based ADCC assay on A431 cells; type: cell-based, human; settings: Herceptin without Dyngo4a
[2] = tested on: KJD cells; assay: Flow cytometry-based ADCC assay on KJD cells; type: cell-based, human; settings: Herceptin without Dyngo4a

Substance: Herceptin: anti-HER2 (anti-erbb2) antibody
- Herceptin-mediated ADCC of A431 cells [1]: sensitive to Herceptin-mediated ADCC
- Herceptin-mediated ADCC of KJD cells [2]: insensitive to Herceptin-mediated ADCC
